## Membrane permeability of cyclic peptides

Data: CycPeptMPDB; original report Townsend et al. 2020, doi:10.26434/chemrxiv.13335941.v1.

PAMPA measures passive passage through an artificial lipid membrane. Permeability is in 10^-6 cm/s, converted from the database's log10 values; higher is more permeable.

- CC(C)C[C@@H]1C(=O)N[C@@H](Cc2ccccc2)C(=O)N2CCC[C@@H]2C(=O)N[C@H](C)C(=O)N[C@H](CC(C)C)C(=O)N(Cc2ccccc2)CC(=O)N2CCC[C@@H]2C(=O)N1C: PAMPA 0.95 × 10^-6 cm/s
- CCCN1CC(=O)N[C@H](CC(C)C)C(=O)N(Cc2ccccc2)CC(=O)N2CCC[C@@H]2C(=O)N[C@H](CC(C)C)C(=O)N[C@@H](Cc2ccccc2)C1=O: PAMPA 3.7 × 10^-6 cm/s
- CC(C)C[C@@H]1NC(=O)[C@@H](C)NC(=O)[C@H]2CCCN2C(=O)[C@H](Cc2ccccc2)NC(=O)CN(Cc2ccccc2)C(=O)[C@H]2CCCN2C(=O)[C@H](CC(C)C)NC1=O: PAMPA 3 × 10^-6 cm/s
- CC(C)C[C@@H]1NC(=O)[C@@H](C)NC(=O)[C@@H]2CCCN2C(=O)[C@H](Cc2ccccc2)NC(=O)[C@H](CC(C)C)N(C)C(=O)[C@H]2CCCN2C(=O)[C@@H](CC(C)C)N(C)C1=O: PAMPA 0.69 × 10^-6 cm/s
- CC(C)C[C@@H]1NC(=O)CN(Cc2ccccc2)C(=O)[C@@H](C)N(C)C(=O)[C@H]2CCCN2C(=O)[C@H](Cc2ccccc2)NC(=O)CN(Cc2ccccc2)C(=O)[C@@H]2CCCN2C1=O: PAMPA 2.3 × 10^-6 cm/s
- CC(C)C[C@@H]1C(=O)N2CCC[C@H]2C(=O)N[C@H](CC(C)C)C(=O)N[C@@H](Cc2ccccc2)C(=O)N(C)[C@@H](C)C(=O)N[C@H](CC(C)C)C(=O)N1C: PAMPA 21 × 10^-6 cm/s
- CC(C)C[C@H]1C(=O)N[C@@H](Cc2ccccc2)C(=O)N[C@H](C)C(=O)N(C)[C@@H](CC(C)C)C(=O)N(Cc2ccccc2)CC(=O)N2CCC[C@@H]2C(=O)N1C: PAMPA 4.6 × 10^-6 cm/s
- CC(C)C[C@@H]1NC(=O)[C@@H]2CCCN2C(=O)[C@H](CC(C)C)NC(=O)[C@@H](CC(C)C)NC(=O)C[C@H](Cc2ccccc2)NC(=O)[C@@H]2CCCN2C(=O)[C@H](Cc2ccccc2)NC1=O: PAMPA 2.5 × 10^-6 cm/s
- CCCN1CC(=O)N(C)[C@@H](CC(C)C)C(=O)N(C)[C@@H](CC(C)C)C(=O)N2CCC[C@@H]2C(=O)N(C)[C@H](CC(C)C)C(=O)N[C@@H](Cc2ccccc2)C(=O)N2CCC[C@H]2C1=O: PAMPA 6.9 × 10^-6 cm/s
- CCCN1CC(=O)N(C)[C@H](CC(C)C)C(=O)N[C@H](CC(C)C)C(=O)N2CCC[C@@H]2C(=O)N[C@H](CC(C)C)C(=O)N[C@@H](Cc2ccccc2)C(=O)N2CCC[C@@H]2C1=O: PAMPA 2.2 × 10^-6 cm/s
- CC(C)C[C@@H]1C(=O)N[C@@H](Cc2ccccc2)C(=O)N2CCC[C@H]2C(=O)N(C)[C@@H](C)C(=O)N(C)[C@@H](CC(C)C)C(=O)N(Cc2ccccc2)CC(=O)N2CCC[C@@H]2C(=O)N1C: PAMPA 3.9 × 10^-6 cm/s
- CC(C)C[C@@H]1NC(=O)[C@H]2CCCN2C(=O)CN(Cc2ccccc2)C(=O)[C@@H](CC(C)C)N(C)C(=O)[C@H](C)N(C)C(=O)[C@H](Cc2ccccc2)NC1=O: PAMPA 2.5 × 10^-6 cm/s
- CC(C)C[C@@H]1NC(=O)[C@@H](CC(C)C)NC(=O)[C@H](C)NC(=O)[C@@H]2CCCN2C(=O)[C@H](Cc2ccccc2)NC(=O)CN(Cc2ccccc2)C(=O)[C@@H]2CCCN2C1=O: PAMPA 2.6 × 10^-6 cm/s
- CC(C)C[C@@H]1NC(=O)[C@@H](C)N(C)C(=O)[C@H]2CCCN2C(=O)[C@H](Cc2ccccc2)NC(=O)[C@@H](CC(C)C)N(C)C(=O)[C@H]2CCCN2C(=O)CN(Cc2ccccc2)C1=O: PAMPA 5.8 × 10^-6 cm/s
- CC(C)C[C@@H]1NC(=O)[C@@H](CC(C)C)N(C)C(=O)[C@@H](C)N(C)C(=O)[C@H](Cc2ccccc2)NC(=O)CN(Cc2ccccc2)C(=O)[C@H]2CCCN2C1=O: PAMPA 2.8 × 10^-6 cm/s

The last 2 entries again:

* CC(C)C[C@@H]1NC(=O)[C@@H](C)N(C)C(=O)[C@H]2CCCN2C(=O)[C@H](Cc2ccccc2)NC(=O)[C@@H](CC(C)C)N(C)C(=O)[C@H]2CCCN2C(=O)CN(Cc2ccccc2)C1=O: PAMPA 5.8 × 10^-6 cm/s
* CC(C)C[C@@H]1NC(=O)[C@@H](CC(C)C)N(C)C(=O)[C@@H](C)N(C)C(=O)[C@H](Cc2ccccc2)NC(=O)CN(Cc2ccccc2)C(=O)[C@H]2CCCN2C1=O: PAMPA 2.8 × 10^-6 cm/s

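The data file gives no further conditions (lipid, pH, time, direction or concentration), and values from different papers need not be comparable. The list need not hold all peptides of the study. Entries at the database's floor value (log10 P of -10) are not listed.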